Screening data: PubChem BioAssay, Broad Institute
PglD DTNB: blocks C. jejuni PglD acetyltransferase activity. purified PglD enzyme, DTNB colorimetric CoA detection. inhibition, % at 12.5 µM. 360,000 tested, 0.098% active; in the data active = inhibition above about 16%, passing the limit was not always enough; inconclusive = no clear call, values can overlap the other calls
miR122 inh: blocks miR-122 activity in Huh7 sensor cells; Huh7 miR-122 Renilla luciferase sensor, 48 h; neutral wells = 0, positive control = 100; activation (reporter increase), % at 12.5 µM; 340,000 tested, 0.3% active;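 active = mean replicate activation score at least 90 and every replicate individually at or above 90; inconclusive = only one of the two criteria met; inactive = neither criterion met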;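 note: higher luciferase means less miR-122 activity so hits act as miR-122 inhibitors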
UUG fidelity: alters start codon recognition fidelity in yeast. S. cerevisiae UUG-firefly luciferase reporter, luminescence/redox ratio. activity score, % at 18.7 µM. 0.13% of 350,000 active. AID 602363;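 active = replicate mean at a twofold rise or more, about +100% in these data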;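 also: firefly luciferase made from a UUG start codon reports start codon fidelity; reporter light over untreated wells divided by growth signal over untreated wells; some hits fall short of that in this replicate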
MITF act: MITF TRPM1 promoter activation in melanoma cells; 300,000 tested, 0.75% active; activation, % at 12.5 µM; SK-MEL-5 TRPM1-promoter luciferase, 24 h; % of positive control, neutral wells = 0;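 active = mean activation of at least 80% with every replicate also reaching 80%; inconclusive = mean reaches 80% but some replicate falls short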
Wnt bcat act: activates Wnt/beta-catenin signaling in a reporter cell assay. activator, plate reader. activation, % at 9.35 µM. 300,000 tested, 1.2% active. AID 743398; in the data active = activation above about 30%, passing the limit was not always enough; inconclusive = no clear call, values can overlap the other calls
esBAF inh: inhibitors of esBAF chromatin remodeling in mouse ES cells. Bmi1-luciferase knock-in reporter, 24 h; 100% = twice the neutral-well signal. reporter increase, % at 12.5 µM. 350,000 tested, 2% active. AID 602393; in the data active = activation above about 40%; inconclusive = no clear call, values can overlap the other calls;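 note: a rise in the Bmi1 reporter signal indicates esBAF inhibition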
A number is an active result; i = inactive; ? = inconclusive; nt = not tested or not shown. An excerpt weighted towards active compounds, which were near 2.8% of everything screened.

SMILES	PglD DTNB	miR122 inh	UUG fidelity	MITF act	Wnt bcat act	esBAF inh
C/C=C/c1cnc2c(c1)C(=O)N([C@H](C)CO)C[C@H](C)[C@@H](CN(C)C(=O)NCCC)O2	i	i	i	nt	nt	i
O=C(NCc1ccncc1)c1cccc(S(=O)(=O)Nc2ccc(F)cc2)c1	i	91	i	i	i	i
O=C(NCCCN1CCCC1=O)c1cccc(S(=O)(=O)Nc2ccc(Br)cc2)c1	i	110	i	i	i	i
Cc1ccc(NS(=O)(=O)c2cc(C(=O)NCc3ccncc3)ccc2C)cc1	i	117	i	i	i	i
O=C(NCc1ccccn1)c1cccc(S(=O)(=O)Nc2ccc(F)cc2)c1	nt	nt	nt	i	i	nt
O=C(NCCCn1ccnc1)c1cccc(S(=O)(=O)Nc2ccc(F)cc2)c1	i	142	i	i	i	i
C[C@@H]1CN([C@@H](C)CO)C(=O)c2cc(NC(=O)CCC(F)(F)F)ccc2O[C@@H]1CN(C)Cc1ccc(C(=O)O)cc1	i	i	i	nt	nt	i
C[C@@H]1CCCCO[C@H](CN(C)C(=O)Nc2ccc3c(c2)OCO3)[C@@H](C)CN([C@@H](C)CO)C(=O)c2cc(NS(=O)(=O)c3cccs3)ccc2O1	i	i	i	nt	nt	i
C[C@@H]1CN([C@H](C)CO)C(=O)Cc2cc(NC(=O)Cc3cn(C)c4ccccc34)ccc2O[C@H]1CN(C)Cc1ccc(C(=O)Nc2ccccc2N)cc1	i	i	i	nt	nt	i
COc1ccc(-c2cn(CCNC(=O)[C@H](Cc3ccccc3)NS(=O)(=O)c3ccc(C)cc3)nn2)cc1OC	i	nt	i	nt	nt	nt
COc1ccc(C(=O)OCc2cc(=O)n3c(C)csc3n2)cc1F	i	i	i	106	i	73
CCNc1nc(Oc2ccc(C(=O)OC)cc2)nc(N(C)C)n1	nt	i	nt	i	nt	i
CCNc1nc(N)nc(Oc2ccc(C(=O)OC)cc2)n1	i	i	i	87	i	?
COc1ccc(NC(=O)Nc2cccc(OC)c2)cc1	i	i	i	96	?	i
COc1ccccc1/C=C/C(=O)/C=C/c1ccccc1O	i	126	i	i	i	i
COc1ccc(CNC(=O)Nc2cc(C)cc(C)c2)cc1	nt	i	nt	i	i	i
CCC(=O)NC(=S)Nc1ccc2oc(-c3ccc(OC)cc3)nc2c1	nt	i	nt	i	i	nt
COc1ccc(CNC(=O)Nc2ccc(C)cc2)cc1	i	i	i	i	i	55
COc1ccc(-c2nc3cc(NC(=S)NC(=O)Cc4ccccc4)ccc3o2)cc1	i	i	i	97	nt	nt
COc1ccccc1C=CC(=O)C=Cc1ccccc1OC	i	nt	i	i	i	i
CCCC#Cc1ccc2c(c1)O[C@H](CN(C)C(=O)c1ccccc1)[C@H](C)CN([C@@H](C)CO)S2(=O)=O	i	i	i	nt	nt	i
O=C(CCN1CCCCC1)NCC[C@@H]1CC[C@H](NC(=O)C2CC2)[C@@H](CO)O1	i	nt	i	nt	nt	i
CN(C)C(=O)[C@H]1[C@H](CO)[C@H]2Cn3c(cccc3=O)[C@@H]1N2CC1CCCCC1	i	i	nt	nt	nt	i
CCC1CCC(NC(=O)Nc2cccc(OC)c2)CC1 (centres undefined)	i	i	i	?	57	83
COc1ccc(NC(=O)Nc2ccc3c(c2)CCC3)cc1	i	i	i	105	i	52
SMILES	PglD DTNB	miR122 inh	UUG fidelity	MITF act	Wnt bcat act	esBAF inh
COc1ccccc1/C=C/C(=O)Nc1ccc2c(c1)CCC2	nt	nt	nt	114	i	nt
COc1cccc(NC(=O)C2CC2)c1	i	i	i	i	i	i
COc1ccc(NC(=S)Nc2ccc(N)c([N+](=O)[O-])c2)cc1	i	i	i	i	45	47
COc1ccc(NC(=O)N(C)C[C@@H]2OCc3ccccc3-c3c(n(C)c4ccccc34)C(=O)N([C@@H](C)CO)C[C@H]2C)cc1	i	nt	i	nt	nt	i
C[C@H]1CN([C@@H](C)CO)C(=O)CCCn2nncc2CO[C@@H]1CN(C)S(=O)(=O)c1ccc(F)cc1	i	i	i	nt	nt	i
COCC(=O)N1C[C@@H](C)[C@@H](OC)CN(C)C(=O)c2cc(NC(=O)Nc3cccc(F)c3)ccc2OC[C@H]1C	i	nt	nt	nt	nt	i
Cc1noc(C)c1NC(=O)N(C)C[C@@H]1OCCCC[C@H](C)Oc2ccc(NC(=O)Nc3cccc4ccccc34)cc2C(=O)N([C@@H](C)CO)C[C@H]1C	i	i	i	nt	nt	i
COc1ccc(NC(=S)Nc2ccc3snnc3c2)cc1	i	i	i	i	i	i
O=C(CCCCC(=O)Nc1ccc(F)cc1F)Nc1ccc(F)cc1F	i	i	i	nt	33	nt
